From patent US12637461B2, “Compounds for the activation of AMPK” (PFIZER INC., priority 2022, dated 2026)

By UniProt entry, the sequences of proteins in these tests, tags left out.
UniProt O43741, whole entry: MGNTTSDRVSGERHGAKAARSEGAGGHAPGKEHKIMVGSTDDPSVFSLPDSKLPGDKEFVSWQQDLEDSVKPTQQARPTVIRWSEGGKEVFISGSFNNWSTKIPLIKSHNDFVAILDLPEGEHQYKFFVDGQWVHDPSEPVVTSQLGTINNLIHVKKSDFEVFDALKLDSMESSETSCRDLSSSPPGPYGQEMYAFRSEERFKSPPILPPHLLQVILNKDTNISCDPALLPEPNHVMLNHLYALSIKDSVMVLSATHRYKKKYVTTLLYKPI
UniProt P54646, whole entry: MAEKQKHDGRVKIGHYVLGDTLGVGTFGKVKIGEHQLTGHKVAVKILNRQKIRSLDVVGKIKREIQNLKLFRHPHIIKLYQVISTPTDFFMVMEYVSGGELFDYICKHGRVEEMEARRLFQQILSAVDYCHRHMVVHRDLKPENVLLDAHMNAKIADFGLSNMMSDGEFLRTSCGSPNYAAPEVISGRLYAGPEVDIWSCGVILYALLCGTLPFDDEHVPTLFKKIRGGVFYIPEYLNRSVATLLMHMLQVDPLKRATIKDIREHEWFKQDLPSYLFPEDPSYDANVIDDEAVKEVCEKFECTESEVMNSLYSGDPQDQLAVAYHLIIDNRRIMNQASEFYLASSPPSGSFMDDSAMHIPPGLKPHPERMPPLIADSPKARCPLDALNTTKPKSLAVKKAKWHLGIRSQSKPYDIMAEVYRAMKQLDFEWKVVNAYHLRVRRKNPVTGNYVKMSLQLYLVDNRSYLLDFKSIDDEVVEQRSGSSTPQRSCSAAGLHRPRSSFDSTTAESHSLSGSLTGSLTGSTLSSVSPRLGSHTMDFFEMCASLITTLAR
UniProt Q9UGI9, whole entry: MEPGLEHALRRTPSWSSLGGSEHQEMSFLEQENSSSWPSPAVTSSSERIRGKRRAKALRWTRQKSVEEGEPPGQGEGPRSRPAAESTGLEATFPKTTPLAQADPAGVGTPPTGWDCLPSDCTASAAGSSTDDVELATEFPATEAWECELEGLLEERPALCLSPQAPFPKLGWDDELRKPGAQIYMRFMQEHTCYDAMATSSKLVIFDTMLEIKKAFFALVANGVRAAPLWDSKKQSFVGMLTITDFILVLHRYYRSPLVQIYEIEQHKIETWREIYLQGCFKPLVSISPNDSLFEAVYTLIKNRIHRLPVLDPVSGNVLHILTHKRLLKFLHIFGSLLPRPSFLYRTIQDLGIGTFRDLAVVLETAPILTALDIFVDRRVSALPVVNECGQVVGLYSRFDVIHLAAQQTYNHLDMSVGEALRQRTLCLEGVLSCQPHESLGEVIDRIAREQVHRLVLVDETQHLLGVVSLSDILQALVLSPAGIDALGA

Biological target: human AMPK α2β2γ3 (Homo sapiens, UniProt O43741+P54646+Q9UGI9)
Assay: Primary cellular assay: γ3 associated phospho-Thr172 AMPK detection (custom pAMPK Surefire AlphaLISA) in α2β2γ3 bulk transiently transfected HEK293 cells
Assay type: cell-based
Settings: activation of human AMPK α2β2γ3 (γ3 pThr172 AMPK signal) in transiently transfected HEK293 cells, 20 minutes compound incubation; for Assay GMean Asy. Max (%): geometric mean of the asymptotic max; for EC50: read-out: Assay GMean EC50, geometric mean EC50

For CC1CC1(O)C(=O)N1CC(Nc2ncc3c(n2)C(C)(c2cccc(Cl)c2F)CN(c2ncccc2F)C3=O)C1 (single isomer, unassigned) [84], the “Assay GMean Asy. Max (%)” value was 184% and the EC50 was 0.0724 µM.
For CC1CC1(O)C(=O)N1CC(Nc2ncc3c(n2)C(C)(c2cccc(Cl)c2F)CN(c2ncccc2F)C3=O)C1 (single isomer, unassigned) [83], the “Assay GMean Asy. Max (%)” value was 152% and the EC50 was 0.0828 µM.
